Measured values as given in PMC10079235 (PLOS Neglected Tropical Diseases, 2023).

What was measured:
[1] = system: HCT-8/MDR1(NTZ) cells; experiment: MTS cytotoxicity (drug tolerance) assay; conditions: after selection by NTZ
Experimental: (§1) Host cell drug tolerance to specified inhibitors was evaluated by 3-(4,5-dimethylthiazol-2-yl)-5-(3-carboxymethoxyphenyl)-2-(4-sulfophenyl)-2H-tetrazolium (MTS) assay. WT and transgenic host cells were seeded in 96-well plates (10,000 cells/well) and cultured for 24 h, followed by the addition of specified compounds at serially diluted concentrations and continued culture for 41 h. After 3 washes with serum-free medium, MTS solution (Saint-Bio, Shanghai, China) was added into the plates (20 μL/well) and incubated at 37°C for 2 h. Optical density at 490 nm (OD490) was measured using a Synergy LX multi-mode reader (BioTek, Winooski, VT). Drug tolerance was indicated by half-maximal cytotoxic concentrations (TC50 values) calculated by nonlinear regression using 4PL model. Selectivity index (SI) for each compound was determined by the ratio between TC50 and EC50 values (SI = TC50/EC50).
(§2) Surviving cells were allowed to recover in drug-free medium for 3–5 d to near confluence (round 1). The selection/recovery cycle were repeated once (round 2). […] The resulting cell lines after PTX or NTZ selection were designated as WT(PTX), NC(PTX) and MDR1(PTX), or WT(NTZ), NC(NTZ) and MDR1(NTZ), respectively (Tables 1 and S2).

[2] = system: HCT-8/NC(PTX) cells; experiment: MTS cytotoxicity (drug tolerance) assay; conditions: after selection by PTX
Experimental: as §1, §2

[3] = system: HCT-8/MDR1(PTX) cells; conditions: after selection by PTX
Experimental: as §1, §2

[4] = system: HCT-8/NC(NTZ) cells; experiment: MTS cytotoxicity (drug tolerance) assay; conditions: after selection by NTZ vs parent cell line
Experimental: as §1
Surviving cells were allowed to recover in drug-free medium for 3–5 d to near confluence (round 1). The selection/recovery cycle were repeated once (round 2). […] Finally, all cells were cultured at the final selection concentrations of PTX or NTZ for ≥7 d, followed by culture in drug-free medium for 14 d. At this time point, cells were used for cytotoxicity and efficacy assays or cryopreserved in a liquid nitrogen tank. […]

| Compound | TC50 [1] | TC50 [2] | TC50 [3] | Fold increase of TC50 NC(NTZ) vs. NC [4] |
| --- | --- | --- | --- | --- |
| CN(C)C(=O)C(CCN1CCC(O)(c2ccc(Cl)cc2)CC1)(c1ccccc1)c1ccccc1 [Loperamide, Loperamide HCl] | 15.35 µM | 15.17 µM | 15.34 µM | – |
| CC(=O)Oc1ccccc1C(=O)Nc1ncc([N+](=O)[O-])s1 [Nitazoxanide] | – | – | – | 1.51 |

Where a name gives a salt, the structure may show the parent alone.
